Experimental data: ChEMBL document CHEMBL3588758, “Structure-Affinity Relationships (SARs) and Structure-Kinetics Relationships (SKRs) of Kv11.1 Blockers” (J Med Chem, 2015)

By UniProt entry, the sequences of proteins in these tests, tags left out. Where a name states a change or a piece, a line headed by the entry shows the natural chain unless it says otherwise.
UniProt Q12809: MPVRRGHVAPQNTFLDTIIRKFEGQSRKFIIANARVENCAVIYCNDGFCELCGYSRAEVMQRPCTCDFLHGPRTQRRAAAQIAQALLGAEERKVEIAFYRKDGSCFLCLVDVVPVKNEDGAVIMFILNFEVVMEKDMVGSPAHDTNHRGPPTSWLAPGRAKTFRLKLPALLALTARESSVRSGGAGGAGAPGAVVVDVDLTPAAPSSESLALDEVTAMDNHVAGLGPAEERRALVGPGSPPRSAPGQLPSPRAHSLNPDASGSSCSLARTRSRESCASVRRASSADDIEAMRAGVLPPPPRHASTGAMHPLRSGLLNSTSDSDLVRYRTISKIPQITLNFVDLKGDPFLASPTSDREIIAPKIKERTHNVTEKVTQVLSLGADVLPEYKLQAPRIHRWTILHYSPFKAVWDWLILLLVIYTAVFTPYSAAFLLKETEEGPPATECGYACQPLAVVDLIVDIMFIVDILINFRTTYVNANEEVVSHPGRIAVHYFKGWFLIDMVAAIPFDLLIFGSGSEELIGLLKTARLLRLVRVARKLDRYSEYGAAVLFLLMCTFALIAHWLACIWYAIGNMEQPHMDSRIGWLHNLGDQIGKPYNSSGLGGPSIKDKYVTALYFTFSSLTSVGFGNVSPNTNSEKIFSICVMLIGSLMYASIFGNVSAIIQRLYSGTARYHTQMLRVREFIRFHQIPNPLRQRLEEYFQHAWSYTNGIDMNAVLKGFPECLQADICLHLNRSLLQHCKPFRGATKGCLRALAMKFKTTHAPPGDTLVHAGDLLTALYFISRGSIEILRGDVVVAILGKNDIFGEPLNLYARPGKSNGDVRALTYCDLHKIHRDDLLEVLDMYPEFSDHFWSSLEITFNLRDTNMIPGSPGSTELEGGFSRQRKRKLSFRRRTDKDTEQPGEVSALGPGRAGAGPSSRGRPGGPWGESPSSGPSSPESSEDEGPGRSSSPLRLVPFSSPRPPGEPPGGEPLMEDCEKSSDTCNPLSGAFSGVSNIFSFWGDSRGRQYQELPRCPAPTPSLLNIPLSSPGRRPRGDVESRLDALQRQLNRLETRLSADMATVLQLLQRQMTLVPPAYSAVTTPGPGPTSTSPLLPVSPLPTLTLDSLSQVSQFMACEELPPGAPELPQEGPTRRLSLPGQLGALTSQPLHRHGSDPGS

Columns and labels:
[1] = biological target: T1, Voltage-gated inwardly rectifying potassium channel KCNH2 (Homo sapiens, UniProt Q12809)
[2] = biological target: T1, Voltage-gated inwardly rectifying potassium channel KCNH2; remark: listed apart in the source

CCCCCCCCc1cccc(CCCCCCCC)[n+]1C
Kd [1]: 1.9 nM | Ki [2]: 3.5 nM
